Assay results published in patent EP3419609B1, “TREATMENT OF ALKAPTONURIA AND TYROSINEMIA TYPE 1” (Università degli Studi di Siena, priority 2016, dated 2017).

Sequences of proteins named here, by UniProt entry; tags and fusion partners are left off. A change or cut given only in a name is not applied to a line headed by its entry.
UniProt P32755: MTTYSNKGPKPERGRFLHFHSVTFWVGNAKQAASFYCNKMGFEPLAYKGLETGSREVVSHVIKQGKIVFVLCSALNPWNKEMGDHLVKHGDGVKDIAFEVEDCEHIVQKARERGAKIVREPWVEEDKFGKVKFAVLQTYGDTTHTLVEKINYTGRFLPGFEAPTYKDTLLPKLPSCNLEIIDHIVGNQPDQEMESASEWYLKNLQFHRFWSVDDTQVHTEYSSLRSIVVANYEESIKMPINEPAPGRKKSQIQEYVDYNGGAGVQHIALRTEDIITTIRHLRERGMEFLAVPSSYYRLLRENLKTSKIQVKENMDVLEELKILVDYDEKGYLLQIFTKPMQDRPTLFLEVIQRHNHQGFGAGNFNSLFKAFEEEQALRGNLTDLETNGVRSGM

Biological target: T1, 4-HPPD (Rattus norvegicus, UniProt P32755)
T1 construct: from tissue; host or cells: liver cytosol of a male Wistar rat
Assay: Determination of 4-HPPD activity by oxygen consumption (SDR SensorDish Reader) in rat liver cytosol
Format: biochemical, male Wistar rat
Details: read-out: IC50 (4-HPPD inhibitory activity)
Protocol: 4-HPPD activity was evaluated in the liver cytosol of a male Wistar rat by monitoring oxygen consumption through the use of the SDR SensorDish® Reader (Presens, Precision Sensing GmbH, Regensburg, Germany). Briefly, a special test tube with an oxygen sensor placed on the bottom was filled with 0.2 M sodium phosphate buffer with pH 7.4, 1.7 mM ascorbic acid (used as a cofactor) and 10.92 mg of rat enzyme preparation (4-HPPD source). The mixture was equilibrated at 37°C for 5 min. and the reaction was started by the addition of substrate ([…], Sigma-Aldrich cod. SAE0003). […] The percentage of inhibition of enzymatic activity was calculated as the ratio of the slopes (decrease of the concentration of O2 (µmol/L) per min.) of the samples containing the inhibitor versus the untreated controls corrected with the negative control values. The IC50 values were calculated by means of regression analysis in the range of tested concentrations by means of the Origin® - Data Analysis and Graphing software using a sigmoid type interpolating curve and plotting on the x-axis the concentrations of the compounds and on the y-axis oxygen consumption values expressed as a percentage of 4-HPPD inhibition, the reduction of oxygen being correlated with inhibition of the enzyme. […]

With O=C1CCCC(=O)C1C(=O)c1ccc(C(F)(F)F)cc1[N+](=O)[O-] [Compound 1, 2-(2-nitro-4-(trifluoromethyl)benzoyl)cyclohexane-1,3-dione, reference compound] the IC50 was 173 nM.
